The target in the experiment is PPP1R15A^325–636-MBP (human) (UniProt O75807).

With “G-actin (from UniProt P68135 1-377) (natural protein)”, the EC50 of the stimulation of eIF2α^P (2 μM) dephosphorylation by PP1^N (20 nM) and PPP1R15A^325–636-MBP (50 nM), G-actin 1–2000 nM, 30 min at 30 °C worked out at 30 nM.
